miR-21 reporter: raises the signal of a miR-21 reporter; HeLa miR-21 FLuc reporter, luciferase, 48 h; Potency, µM (series often up to 38.3 µM), inactives show top-dose reporter change, positive = more light; 340,000 tested, under 10 active; active = well fitted rising curve with a large enough effect; inconclusive = small, poorly fitted or top-dose-only effect; inactive = no such curve, though single readings can be large or run the other way;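 also: % of control where 0% means no effect; miR-21 action dims this reporter so a rising signal means less miR-21 action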
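HeLa cells endogenously expressing miR-21, stably carrying CMV-driven firefly luciferase with a downstream miR-21 binding site, 2000 cells/well. Titrations up to approximately 40 uM, 48 hours; luciferase luminescence read.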
Nrf2 inh: inhibitors of Nrf2 signaling. A549 ARE-Fluc reporter, luciferase luminescence, 18-24 h. Potency, µM (titrated, usually from 46 µM), inactives show at the highest dose activity change, negative = inhibition, hits mostly inhibitors. actives 2.1% (n = 360,000). AID 504444; further: potency means the concentration at half of the fitted maximal effect; on the % scale 0 is the no-effect control and ±100 the full control effect; nearly all actives have a fitted effect of over 60% in size
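Concentration-response testing used A549 ARE_Fluc cells at 5000 cells/well. Following an 18-24 h compound incubation, viability was read by fluorescence (Ex 405/Em 525) and luciferase output by luminescence.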
Nrf2 ARE act: Nrf2 pathway activation | AREc32 ARE-luciferase reporter (MCF7-derived line), luminescence, 24 h | Potency, µM (doses to about 46.1 µM), without a hit: at the highest dose activation, usual class: activators | actives 0.31% (n = 410,000); further: potency means the concentration at half of the fitted maximal effect; % of control where 0% means no effect; nearly all actives have a fitted effect of over 65% in size
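Each well held 1000 AREc32 cells, which were incubated with compound for 24 hr at 37 deg C after overnight attachment, and ARE reporter activity was quantified by firefly luciferase luminescence.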
p53 reactivation: re-activators of mutant p53. H1299 p53-A138V BP100-luciferase reporter, luminescence, 24 h. Potency, µM (highest dose often 92.2 µM), for inactives: at the highest dose activity change, positive = activation, most hits filed as activators. actives 0.063% (n = 320,000). AID 504706; further: potency means the concentration at half of the fitted maximal effect; % of control where 0% means no effect; nearly all actives have a fitted effect of over 45% in size
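p53-null H1299 cells stably carrying temperature-sensitive p53-A138V and a BP100-luciferase reporter were pinned with compounds (4-point, 1:5 series) and held 24 hrs at 37 deg C. Luminescence was read 10 min after detection reagent.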
ClpP mod: qHTS Assay for Activators of ClpP; ATP-dependent Clp protease proteolytic subunit (Bacillus subtilis (strain 168)), P80244; purified B. subtilis ClpP, FRET peptide cleavage, 20 min; Potency, µM (highest dose often 57.5 µM), for the others: at the top dose activity change, negative = active; actives 1.9% (n = 340,000); active means well fitted falling curve with a large enough effect; inconclusive means small, poorly fitted or top-dose-only effect; inactive means no such curve, though single readings can be large or run the other way; further: potency means the concentration at half of the fitted maximal effect; the source files actives as falling curves though it sought activators and does not explain the sign; nearly all actives have a fitted effect of over 65% in size
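Purified B. subtilis ClpP, 10 microg/mL final in Tris/HCl pH8 with KCl, BSA, glycerol and Tween-20, cleaved an Abz/nitrotyrosine-quenched decapeptide. Fluorescence (ex 320, em 430) was read at 0 and 20 min at room temperature. Delta was normalized to 5.8 microM ADEP and DMSO/no-enzyme controls.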
A549 viability: A549 cytotoxicity, counter-screen for Nrf2 inhibitors; A549 ARE-Fluc cells, CellTiter-Fluor viability, 18-24 h; Potency, µM (highest dose often 46 µM), for inactives: at the top dose activity change, negative = cytotoxicity, most hits filed as inhibitors; actives 0.16% (n = 390,000); AID 504648; further: potency means the concentration at half of the fitted maximal effect; on the % scale 0 is the no-effect control and ±100 the full control effect
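A549 ARE-Fluc cells in 5% FBS OPTI-MEM, 5000 cells/well, rested 2 h then exposed to compounds in concentration-response for 18-24 h at 37 °C. Viability by CellTiter-Fluor fluorescence (Ex 405/Em 525) after 30 min; luciferase luminescence (BugLite, 15 min, RT) read afterwards.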
Numbers without * were called inactive. Rows were chosen to be rich in hits. Some 3.7% of all compounds tested hit in one or more screens of this group. Unless noted, the call rests on the fitted dose curve; in most records, active means well fitted curve in the direction sought with a large enough effect; inconclusive means small, poorly fitted or top-dose-only effect, or another doubt; inactive means no such curve, though single readings can be large; an effect the other way counts as inactive or inconclusive.

`Oc1ccccc1-c1nc(-c2cccs2)c(-c2cccs2)[nH]1` gave miR-21 reporter inconclusive, Nrf2 inh inconclusive, Nrf2 ARE act 0%, ClpP mod 14µM* and A549 viability -22%.
`CN(C)c1ccc(-c2nc(-c3cccs3)c(-c3cccs3)[nH]2)cc1` gave miR-21 reporter 29%, Nrf2 inh inconclusive, Nrf2 ARE act 0%, ClpP mod 11µM* and A549 viability -10%.
For N#C/C(=C\c1ccccn1)c1ccccn1 the results were miR-21 reporter 12%, Nrf2 inh inconclusive, Nrf2 ARE act 22µM*, p53 reactivation inconclusive and A549 viability -2%.
For Cc1cc(C)n2nc(/C(C#N)=C/c3ccccn3)c(C#N)c2n1 the results were miR-21 reporter 3%, Nrf2 inh -27%, Nrf2 ARE act 7.9µM*, p53 reactivation 0% and A549 viability -19%.
COc1cc(/C=C(\C#N)c2ccccn2)ccc1OCc1ccccc1Cl was read as miR-21 reporter -4%, Nrf2 inh -19%, Nrf2 ARE act -1%, p53 reactivation -11%, ClpP mod 1% and A549 viability 4%.
COc1cc(/C=C(\C#N)c2ccccn2)cc(OC)c1O was read as miR-21 reporter 21%, Nrf2 inh 2%, Nrf2 ARE act 13µM*, p53 reactivation 0%, ClpP mod 3% and A549 viability 8%.
`CCCCC(=O)N(C)c1c(CC)nc2c(OCCOc3ccc(F)cc3)cccn12` gave Nrf2 ARE act 0% and ClpP mod -2%.
Screening O=c1c(N2CCc3ccccc3C2)csc2ccc(F)cc12 returned miR-21 reporter -15%, Nrf2 ARE act 8%, ClpP mod -13% and A549 viability -14%.
Screening COC(=O)c1ccc(C(=O)OC)c(N)c1 returned miR-21 reporter -18% and p53 reactivation 30%.
`COC(=O)c1ccc(Sc2ccc(Cl)cc2)c(N)c1` gave miR-21 reporter -15%, Nrf2 ARE act 0%, p53 reactivation inconclusive, ClpP mod 25µM* and A549 viability 1%.
`CCOC(=O)c1c(C)[nH]c(C=O)c1Cc1cccc(Cl)c1` gave miR-21 reporter 26%, Nrf2 inh 26µM*, Nrf2 ARE act 0%, p53 reactivation -4%, ClpP mod 3% and A549 viability inconclusive.
`CCOc1ccc(S(=O)(=O)Nc2ccc(F)cc2)c(C)c1C` gave miR-21 reporter 15%, Nrf2 inh 18µM*, Nrf2 ARE act 3%, p53 reactivation -3%, ClpP mod 0% and A549 viability -27%.
Screening CCOc1ccc(NS(=O)(=O)c2cc(OC)ccc2OC)cc1 returned miR-21 reporter 1%, Nrf2 inh -12%, Nrf2 ARE act 0%, p53 reactivation 3%, ClpP mod -2% and A549 viability -3%.
`CN1CCN(C(CNC(=O)C(=O)Nc2ccccc2)c2ccc3c(c2)OCO3)CC1` (stereo not given) gave miR-21 reporter -8%, Nrf2 ARE act 0%, ClpP mod 0% and A549 viability -10%.
Screening Cc1ccccc1Cn1c(=O)n(CCCCC(=O)NCc2ccc3c(c2)OCO3)c(=O)c2ccccc21 returned miR-21 reporter 14%, Nrf2 inh inconclusive, Nrf2 ARE act -1%, ClpP mod -7% and A549 viability -2%.
Screening CC(C)N=C(N)N=C(N)Nc1ccc(Cl)cc1 returned Nrf2 inh 1%, Nrf2 ARE act 7%, p53 reactivation -6%, ClpP mod 1% and A549 viability -4%.

Structures above that have a thiophene ring, fused or not, in the order listed:
`Oc1ccccc1-c1nc(-c2cccs2)c(-c2cccs2)[nH]1` gave miR-21 reporter inconclusive, Nrf2 inh inconclusive, Nrf2 ARE act 0%, ClpP mod 14µM* and A549 viability -22%.
`CN(C)c1ccc(-c2nc(-c3cccs3)c(-c3cccs3)[nH]2)cc1` gave miR-21 reporter 29%, Nrf2 inh inconclusive, Nrf2 ARE act 0%, ClpP mod 11µM* and A549 viability -10%.
